Test results as given in patent publication US10696677B2 (Research Triangle Institute, priority 2016, dated 2020).
Like-named read-outs stand apart in the source and are kept apart here.

By UniProt entry, the sequences of proteins in these tests, tags left out.
UniProt P21554, whole entry: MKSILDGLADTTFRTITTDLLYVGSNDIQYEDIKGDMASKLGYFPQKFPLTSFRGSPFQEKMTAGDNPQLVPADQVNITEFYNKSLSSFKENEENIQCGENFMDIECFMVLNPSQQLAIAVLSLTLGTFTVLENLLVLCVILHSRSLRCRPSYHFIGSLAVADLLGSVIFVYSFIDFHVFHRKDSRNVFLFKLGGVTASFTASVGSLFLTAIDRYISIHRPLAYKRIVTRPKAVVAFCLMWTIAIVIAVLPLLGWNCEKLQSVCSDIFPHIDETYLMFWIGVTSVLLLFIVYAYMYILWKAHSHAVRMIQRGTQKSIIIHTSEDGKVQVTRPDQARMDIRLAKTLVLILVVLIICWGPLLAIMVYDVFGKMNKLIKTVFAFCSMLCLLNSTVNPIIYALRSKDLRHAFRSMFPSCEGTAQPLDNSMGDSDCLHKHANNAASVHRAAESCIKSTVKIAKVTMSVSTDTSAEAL
UniProt P34972, whole entry: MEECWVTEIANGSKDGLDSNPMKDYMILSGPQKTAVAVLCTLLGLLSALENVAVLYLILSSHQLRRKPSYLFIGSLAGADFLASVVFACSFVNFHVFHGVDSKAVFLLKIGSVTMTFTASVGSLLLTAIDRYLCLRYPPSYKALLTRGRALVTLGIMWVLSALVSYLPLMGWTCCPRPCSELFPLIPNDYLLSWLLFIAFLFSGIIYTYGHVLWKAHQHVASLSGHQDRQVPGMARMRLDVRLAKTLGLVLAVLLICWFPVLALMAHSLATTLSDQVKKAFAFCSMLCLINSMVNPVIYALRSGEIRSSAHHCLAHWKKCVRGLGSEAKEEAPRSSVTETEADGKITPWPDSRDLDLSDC

How the values were obtained:
MDCK = MDCK BBB Assay; assay type: in vitro ADME; settings: MDCK cells
hCB1 [1] = molecular target: T1, hCB1 (Homo sapiens, UniProt P21554); assay: functional fluorescent CB1 activated Gαq16-coupled intracellular calcium mobilization assay in CHO-K1 cells; assay type: cell-based; parameters: expressed in transfected cells; host or cells: CHO-K1 (membranes)
hCB1 [2] = molecular target: T1, hCB1; assay: radioligand displacement binding at CB1 (membranes of CHO-K1 cells over-expressing receptor); settings: for CB2 Ki/CB1 Ki selectivity ratio: CB1 versus CB2
hCB2 = hCB2 (Homo sapiens, UniProt P34972); assay: radioligand displacement binding at CB2 ([3H]CP55940, membranes of CHO-K1 cells over-expressing receptor)
[3] = read-out: Binding affinity (Ki) at hCB1, radioligand displacement, CHO-K1 membranes, average of 3-6 measurements
[4] = calcium mobilization, CHO-K1 cells, average of 3-6 measurements, read-out: Apparent antagonist dissociation constant (Ke) at hCB1
[5] = read-out: Binding affinity (Ki) at hCB2, displacement of [3H]CP55940, CHO-K1 membranes, average of 3-6 measurements

Structure (SMILES) | MDCK BBB Assay (Basolateral/Apical Peak Area Ratio) Mean (MDCK) | Kb (hCB1 [1]) | CB2 Ki/CB1 Ki selectivity ratio (hCB1 [2]) | Ki (hCB1 [2]; [3]) | Ki (hCB2) | Kb (hCB1 [1]; [4]) | Ki (hCB1 [2]) | Ki (hCB2; [5])
O=C(Nc1ccccc1F)NC1CCN(c2ncnc3c2nc(-c2ccccc2Cl)n3-c2ccc(Cl)cc2)CC1 [Compound 19, 3-{1-[8-(2-Chlorophenyl)-9-(4-chlorophenyl)-9H-purin-6-yl]piperidin-4-yl}-1-(2-fluorophenyl)urea] | 0.001 | 52 nM | 4200 | 4 nM | 17000 nM | – | – | –
Clc1ccc(-n2c(-c3ccccc3Cl)nc3c(N4CCN(c5ccccn5)CC4)ncnc32)cc1 [Compound 67, 8-(2-Chlorophenyl)-9-(4-chlorophenyl)-6-(4-pyridin-2-ylpiperazin-1-yl)-9H-purine] | 0.001 | – | 1136 | – | 2710 nM | 13 nM | 2.4 nM | –
Clc1ccc(-n2c(-c3ccccc3Cl)nc3c(N4CCN(Cc5ccncc5)CC4)ncnc32)cc1 [Compound 105, 8-(2-Chlorophenyl)-9-(4-chlorophenyl)-6-[4-(pyridin-4-ylmethyl)piperazin-1-yl]-9H-purine] | – | – | – | – | – | 6 nM | 22.4 nM | 1720 nM
CC(c1ccncc1)N1CCN(c2ncnc3c2nc(-c2ccccc2Cl)n3-c2ccc(Cl)cc2)CC1 (centres unmarked) [Compound 106, 8-(2-Chlorophenyl)-9-(4-chlorophenyl)-6-[4-(1-pyridin-4-ylethyl)piperazin-1-yl]-9H-purine] | – | – | – | 11.9 nM | 1130 nM | 0.5 nM | – | –
FC(F)(F)c1ccccc1CN1CCN(c2ncnc3c2nc(-c2ccccc2Cl)n3-c2ccc(Cl)cc2)CC1 [Compound 111, 8-(2-Chlorophenyl)-9-(4-chlorophenyl)-6-{4-[2-(trifluoromethyl)benzyl]piperazin-1-yl}-9H-purine] | – | – | >10000 | 5 nM | > 50000 nM | 5 nM | – | –
Clc1ccc(-n2c(-c3ccccc3Cl)nc3c(N4CCN(Cc5ccncc5Cl)CC4)ncnc32)cc1 [Compound 113, 8-(2-chlorophenyl)-9-(4-chlorophenyl)-6-(4-[(3-chloropyridin-4-yl)methyl]piperazin-1-yl}-9H-purine] | – | – | 13000 | 3 nM | 38000 nM | 3 nM | – | –
Cc1c(CN2CCN(c3ncnc4c3nc(-c3ccccc3Cl)n4-c3ccc(Cl)cc3)CC2)cnn1C [Compound 114, 8-(2-Chlorophenyl)-9-(4-chlorophenyl)-6-{4-[(1,5-dimethyl-1H-pyrazol-4-yl)methyl]piperazin-1-yl}-9H-purine] | – | – | 120 | 8 nM | – | 42 nM | – | 990 nM
Cc1nc(CN2CCN(c3ncnc4c3nc(-c3ccccc3Cl)n4-c3ccc(Cl)cc3)CC2)no1 [Compound 115, 8-(2-Chlorophenyl)-9-(4-chlorophenyl)-6-{4-[(5-methyl-1,2,4-oxadiazol-3-yl)methyl]piperazin-1-yl}-9H-purine] | – | – | 150 | 24 nM | – | 12 nM | – | 3600 nM
O=C(NC1CCN(c2ncnc3c2nc(-c2ccccc2Cl)n3-c2ccc(Cl)cc2)CC1)NC1CCC(F)(F)CC1 [Compound 124, 3-{1-[8-(2-Chlorophenyl)-9-(4-chlorophenyl)-9H-purin-6-yl]piperidin-4-yl}-1-(4,4-difluorocyclohexyl)urea] | – | – | >500 | 18 nM | > 10000 nM | 79 nM | – | –
O=C(NCc1ccc(F)cc1)NC1CCN(c2ncnc3c2nc(-c2ccccc2Cl)n3-c2ccc(Cl)cc2)CC1 [Compound 128, 3-{1-[8-(2-Chlorophenyl)-9-(4-chlorophenyl)-9H-purin-6-yl]piperidin-4-yl}-1-[(4-fluorophenyl)methyl]urea] | – | – | >1600 | 3 nM | > 5000 nM | 51 nM | – | –
CC1(NC(=O)NS(=O)(=O)c2ccccc2F)CCN(c2ncnc3c2nc(-c2ccccc2Cl)n3-c2ccc(Cl)cc2)CC1 [Compound 129, 3-{1-[8-(2-Chlorophenyl)-9-(4-chlorophenyl)-9H-purin-6-yl]-4-methylpiperidin-4-yl}-1-[(2-fluorobenzene)sulfonyl]urea] | – | – | >80 | 120 nM | > 10000 nM | 7 nM | – | –
